Values of other authors as cited in US7067251B2 (priority 2000, dated 2006).

Tested on: C3H10T½ cells
Conditions: cited from earlier work

BMP-2
Induction in Sox9 expression: 4 fold
